Columns and labels:
[1] = target: CYP116B305; assay: Substrate binding by UV-visible difference spectroscopy (KD, heme spin-state shift); set-up: species or system Geminicoccaceae; details: for Spin-state shift (%): low-spin to high-spin heme shift on substrate binding
[2] = system: CYP116B305; assay: NAD(P)H consumption assay (cofactor preference, oxidation rates); assay type: biochemical, Geminicoccaceae; details: for NADH consumption rates / NADPH consumption rates: 33% FMN inclusion, min^−1; for NADH consumption rates (100% FMN rates) / NADPH consumption rates (100% FMN rates): corresponding to full FMN incorporation, approximate maximum
Procedure: The consumption rates were calculated using nonlinear regression (GraphPad Prism), fitting to either the Michaelis–Menten or a quadratic velocity equation to determine the apparent KM and kcat values.

[3] = system: CYP116B305; assay: In vitro catalytic turnovers and coupling efficiency (GC-MS); assay type: biochemical, Geminicoccaceae; details: for Coupling (NADH): product formed to NADH consumed; for Coupling (NADPH): product formed to NADPH consumed
Procedure: The reaction mixtures contained CYP116B305 (1 µM) in KPi buffer (50 mM, pH 7.4), catalase (1 µM), substrate (600 µM), and NAD(P)H (1.2 mM). Reactions were conducted at both room temperature (25 °C) and elevated temperature (45 °C) under constant stirring for 1 h. A control reaction, omitting the P450 enzyme, was also performed. Post-incubation, reaction mixtures were acidified to pH 0–2 with HCl (except for 4-methoxyacetophenone assays), followed by extraction with ethyl acetate (3 × 1 mL). The combined organic phases were dried over magnesium sulphate and concentrated to 100 µL under a stream of nitrogen gas. Concentrated samples were derivatised with N,O-bis(trimethylsilyl)trifluoroacetamide (BSTFA-TMS) before being analysed by gas chromatography–mass spectrometry (GC–MS; Zebron ZB-5MS column 30 m × 0.25 mm × 0.25 µm). The method was 50 °C for 5 min followed by increments of 16 °C min^−1 until 250 °C was reached, then held for 5 min.
For coupling efficiency analysis, the NAD(P)H concentration was reduced to 200 µM, and an internal standard (100 µM) was added to the reactions prior to acidification and extraction. […] In the case of 4-methoxyacetophenone, the reactions were stirred for 2 h, and product formation (4-hydroxyacetophenone) was then quantified using a standard curve generated from 4-hydroxyacetophenone (0.05–1 mM) and an internal standard (fluorene; 100 µM).

[4] = system: CYP116B234; details: ref Kundral et al. [2025]; cited from earlier work
[5] = system: CYP116B46; details: ref Akter et al. [2024]; cited from earlier work

Q: With `O=C(O)Cc1ccccc1O` [2-HPA, 2-hydroxyphenylacetic acid] as the compound, how does the Kd ([1]; difference spectroscopy, CYP116B305 2–4 µM, substrate 0–100 µM) read?
A: 400 ± 100 nM

Q: What about the “Spin-state shift (%)” value [1] of the same compound?
A: 84 ± 3%

Q: And the “Spin-state shift (%)” value ([1]; listed as 2-Hydroxyphenylacetic acid (2-HPA))?
A: 84 ± 3%

Q: And the NADH consumption rates ([2]; 25 °C)?
A: 26 ± 2 µM (µM^−1 P450) min^−1

Q: And the NADPH consumption rates ([2]; 25 °C)?
A: 13 ± 1 µM (µM^−1 P450) min^−1

Q: And the “NADH consumption rates (100% FMN rates)” value ([2]; 25 °C)?
A: ~79 µM (µM^−1 P450) min^−1

Q: What about the “NADPH consumption rates (100% FMN rates)” value ([2]; 25 °C) of the same compound?
A: ~39 µM (µM^−1 P450) min^−1

Q: What about the “fold increase of NADH oxidation rate” value ([2]; 45 °C compared to 25 °C) of the same compound?
A: 3.2 fold

Q: And the “fold increase of NADPH oxidation rate” value ([2]; 45 °C compared to 25 °C)?
A: 6.5 fold

Q: And the NADH consumption rates ([2]; 45 °C)?
A: 83 ± 10 µM (µM^−1 P450) min^−1

Q: And the NADPH consumption rates ([2]; 45 °C)?
A: 85 ± 3 µM (µM^−1 P450) min^−1

Q: What about the “NADH consumption rates (100% FMN rates)” value ([2]; 45 °C) of the same compound?
A: ~251 µM (µM^−1 P450) min^−1

Q: What about the “NADPH consumption rates (100% FMN rates)” value ([2]; 45 °C) of the same compound?
A: ~257 µM (µM^−1 P450) min^−1

Q: What about the “Coupling (NADH)” value ([3]; 25 °C) of the same compound?
A: 31 ± 3%

Q: What about the “Coupling (NADPH)” value ([3]; 25 °C) of the same compound?
A: 60 ± 18%

Q: What about the “Coupling (NADH)” value ([3]; 45 °C) of the same compound?
A: 58 ± 3%

Q: What about the “Coupling (NADPH)” value ([3]; 45 °C) of the same compound?
A: 82 ± 4%

Q: What about the “substrate conversion with NADH” value ([3]; NADH, either temperature (25 °C, 45 °C)) of the same compound?
A: complete conversion of 2-HPA was not achieved

Q: What about the “substrate consumption with NADPH” value ([3]; NADPH in stoichiometric ratio to substrate, both 25 °C and 45 °C) of the same compound?
A: complete consumption

Q: What about the heme spin-state shift [4] of the same compound?
A: 66%

Q: And the heme spin-state shift [5]?
A: 25%

Reference: article PMC12126322, “Characterisation of the thermophilic P450 CYP116B305 identified using metagenomics-derived sequence data from an Australian hot spring” (Applied Microbiology and Biotechnology, 2025)
